Test results as given in ChEMBL document CHEMBL1151963 (J Med Chem, 2009).

By UniProt entry, the sequences of proteins in these tests, tags left out.
UniProt P42336, whole entry: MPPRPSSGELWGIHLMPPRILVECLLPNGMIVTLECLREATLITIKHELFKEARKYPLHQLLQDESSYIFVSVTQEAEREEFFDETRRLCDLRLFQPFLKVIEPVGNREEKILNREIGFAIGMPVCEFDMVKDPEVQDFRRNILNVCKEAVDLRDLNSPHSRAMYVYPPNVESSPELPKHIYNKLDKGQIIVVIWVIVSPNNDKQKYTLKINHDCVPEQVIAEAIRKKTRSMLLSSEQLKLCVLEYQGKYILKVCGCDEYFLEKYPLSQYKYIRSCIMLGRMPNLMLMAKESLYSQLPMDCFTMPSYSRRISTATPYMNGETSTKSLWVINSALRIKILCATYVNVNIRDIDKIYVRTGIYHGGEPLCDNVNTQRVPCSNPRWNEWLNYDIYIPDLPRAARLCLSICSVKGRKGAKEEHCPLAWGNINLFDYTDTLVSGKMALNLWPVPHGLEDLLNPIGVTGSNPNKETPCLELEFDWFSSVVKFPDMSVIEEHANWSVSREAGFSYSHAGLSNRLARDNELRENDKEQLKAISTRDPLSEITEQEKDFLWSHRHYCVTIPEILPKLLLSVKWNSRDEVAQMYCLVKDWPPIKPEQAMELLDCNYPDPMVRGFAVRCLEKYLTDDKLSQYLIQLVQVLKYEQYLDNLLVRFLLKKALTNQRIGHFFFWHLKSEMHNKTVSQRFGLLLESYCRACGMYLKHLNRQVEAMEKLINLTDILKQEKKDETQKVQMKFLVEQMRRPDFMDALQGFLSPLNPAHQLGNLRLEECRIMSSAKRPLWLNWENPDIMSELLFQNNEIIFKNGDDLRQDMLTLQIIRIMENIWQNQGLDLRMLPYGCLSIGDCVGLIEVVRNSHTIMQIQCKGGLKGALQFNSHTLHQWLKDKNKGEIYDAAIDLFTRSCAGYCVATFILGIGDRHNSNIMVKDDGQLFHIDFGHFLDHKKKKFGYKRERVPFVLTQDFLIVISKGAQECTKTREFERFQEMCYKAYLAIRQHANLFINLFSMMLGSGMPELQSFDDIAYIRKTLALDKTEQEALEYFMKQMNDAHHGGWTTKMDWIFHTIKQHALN

Biological target: Phosphatidylinositol 4,5-bisphosphate 3-kinase catalytic subunit alpha isoform (Homo sapiens, UniProt P42336)
Assay: Inhibition of PI3Kalpha expressed in Escherichia coli by microtiter plate-based fluorescence polarization assay

COC(=O)N1CCC(n2ncc3c(N4CCOCC4)nc(-c4ccc(NC(=O)OCCO)cc4)nc32)CC1
IC50: 681 nM
